For test [1], the system named is KOR. Conditions: read-out: EC50 (KOR agonist); cited from earlier work.
The subject of another test is human macrophages. Nature of the test: LPS‐activated human macrophages, flow cytometry. Conditions: activated human macrophages (LPS 12 h), compound 1 μM, 48 h, vs control. In general terms: Flow cytometry measures light scatter and fluorescence of single cells or particles in a stream.
A further test deals with mouse CD4^+ T cells. Kind of test: anti‐CD3/anti‐CD28 activated mouse CD4^+ T cells, flow cytometry. Conditions: mouse T cell cultures, 1 μM, Figure 7F.
The target of test [2] is T1, σ1 receptor (Cavia porcellus, UniProt Q60492). Kind of test: σ1 receptor assay: radioligand binding with [^3H]‐(+)‐Pentazocine. Conditions: test compound concentration of 1 μM; guinea pig brain membrane preparations.
Test [3] concerns the target T2, DOR (Rattus norvegicus, UniProt P33533). Kind of test: DOR assay: competitive radioligand binding with [^3H]DPDPE. Conditions: test compound concentration of 1 μM; rat brain membrane preparations.
In another test the target is σ2 receptor (Rattus norvegicus, UniProt Q5U3Y7). Kind of test: σ2 receptor assay: radioligand binding with [^3H]DTG. Conditions: test compound concentration of 1 μM; rat liver membrane preparations.
The target in test [4] is KOR (Cavia porcellus, UniProt P41144). Kind of test: KOR assay: competitive radioligand binding with [^3H]U‐69,593. Conditions: read-out: K i±SEM KOR [^3H]U‐69,593; guinea pig brain membrane preparations.
A further test concerns human CD4^+ T cells. Nature of the test: anti‐CD3/anti‐CD28 activated human CD4^+ T cells, flow cytometry.
Test [5] addresses T2, DOR. Conditions: read-out: K i±SEM DOR [^3H]DPDPE; rat brain membrane preparations; cited from earlier work.
For a further test, the system named is EAE. Conditions: cited from earlier work.
Test [6] deals with T1, σ1 receptor. Conditions: test compound concentration of 1 μM; guinea pig brain; cited from earlier work.
In test [7] the test system is mouse and human immune cell subsets. Conditions: different mouse and human immune cell subsets; cited from earlier work.
The test system of test [8] is KOR. Conditions: read-out: K i (KOR); cited from earlier work.
For the next test, the target named is MOR (Cavia porcellus, UniProt A0ACM8Q262). Conditions: read-out: K d value (MOR assay radioligand); cited from earlier work.
Setting [9] is: activated human CD4^+ T cells, compound 1 μM, 48 h.

Where two headings read alike, the source gives them in different places.

As usually defined, the EC50 is the concentration that produces a half-maximal response. In the case of `COC(=O)N1CCN(C(=O)Cc2ccc(Cl)c(Cl)c2)[C@@H]2[C@@H](N3CCCC3)CCC[C@@H]21`, in the test on KOR [1], the 50% effective concentration (EC50) is 2 nM.

Take `O=C(Cc1ccc(Cl)c(Cl)c1)N1CCC[C@@H]2CCC[C@@H](N3CCCC3)[C@@H]21`: the “numbers of cells expressing CD86, IL‐6 and TNF‐α” value in the test on human macrophages was “did not show anti‐inflammatory properties”. Also, in the test on mouse CD4^+ T cells, the “cell numbers of Helios^+ and Helios^− Treg subsets compared to non‐stimulated controls” value is listed as “did not detect any significant difference”. For the same compound, the “σ1 [^3H](+)‐pentazocine, inhibition of the radioligand binding” value at σ1 receptor [2] is recorded as 0%. For the same compound, at DOR [3], the “DOR [^3H]DPDPE, inhibition of the radioligand binding” value was 0%. Also, the “σ2 [^3H]DTG, inhibition of the radioligand binding” value at σ2 receptor is 12%. On KOR [4], the Ki was 195 nM. Besides, in the test with human CD4^+ T cells (setting [9]), the “numbers of Th1 cells (CD4^+ T cells expressing IFN‐γ and T‐bet)” value is recorded as “did not observe reduced levels”; the “numbers of Th17 cells (CD4^+ T cells expressing IL‐17 and ROR‐c)” value is listed as “did not observe reduced levels”. Moreover, in the test with human CD4^+ T cells (human T cell cultures, 1 μM, Figure 7C), the “cell numbers of Helios^+ and Helios^− Treg subsets compared to non‐stimulated controls” value is reported as “did not detect any significant difference”.

Turning to `O=C(Cc1ccc(Cl)c(Cl)c1)N1CCN(Cc2cn(CCF)nn2)[C@H]2CCC[C@H](N3CCCC3)[C@H]21`, the Ki at DOR [5] was 413 nM. Further, the “disease perpetuation in EAE” value in the test with EAE was “significantly reduced disease perpetuation”. Further, the “σ1 [^3H](+)‐pentazocine, inhibition of the radioligand binding” value at σ1 receptor [6] is recorded as 2%. Further, in test [7], the “expression of classical activation markers, IFN‐γ, TNF‐α and IL‐17 A” value was “significantly decreased”; the “release of anti‐inflammatory cytokines like IL‐10” value was “increased the release”.

With `CN(C(=O)Cc1ccc(Cl)c(Cl)c1)[C@H]1CCCC[C@@H]1N1CCCC1`, the “symptoms of EAE” value with EAE is “alleviated the symptoms of EAE”. Further, the Ki at KOR [4] and in the test with KOR [8] was 0.34 nM each time.

For the compound DAMGO, the Kd at MOR was 0.57 nM.

The values are drawn from PMC7496650, “Enantiomerically Pure Quinoline‐Based κ‐Opioid Receptor Agonists: Chemoenzymatic Synthesis and Pharmacological Evaluation” (2020).
